Reference: ChEMBL document CHEMBL3098072 (Bioorg Med Chem, 2014)

Assays:
Experiment in all cases: microbe, parasite or virus in culture
[1] = system: Staphylococcus aureus; details: 20 h
[2] = system: Bacillus subtilis; details: 20 h
[3] = system: Mycobacterium tuberculosis; details: H37Rv, 96 h

Nc1cccc(-c2cnnc(N3CCC(c4cccc(Cl)c4)C3)n2)c1 (centres undefined)
MIC [1]: 30 µM (≈ 10.6 µg/mL) | MIC [2]: 32 µM (≈ 11.3 µg/mL) | MIC [3]: 29.7 µM (≈ 10.4 µg/mL)

Clc1cccc(C2CCN(c3nncc(-c4ccccc4)n3)C2)c1 (centres undefined)
MIC [1]: > 50 µM | MIC [2]: 16 µM (≈ 5.39 µg/mL) | MIC [3]: 32 µM (≈ 10.8 µg/mL)

COc1ccc(-c2cnnc(N3CCC(c4cccc(Cl)c4)C3)n2)cc1OC (centres undefined)
MIC [1]: > 50 µM | MIC [2]: 16 µM (≈ 6.35 µg/mL) | MIC [3]: 15.4 µM (≈ 6.11 µg/mL)

Converted amounts (≈) assume the structure as drawn.
